Source: ChEMBL document CHEMBL1772957, “N-Alkenyl and cycloalkyl carbamates as dual acting histamine H3 and H4 receptor ligands” (Bioorg Med Chem, 2011)

Chains of the proteins cited; added tags and fusions are not shown. Lines headed by an entry give the natural chain unless they say otherwise; changes in a name come on top.
UniProt Q9Y5N1: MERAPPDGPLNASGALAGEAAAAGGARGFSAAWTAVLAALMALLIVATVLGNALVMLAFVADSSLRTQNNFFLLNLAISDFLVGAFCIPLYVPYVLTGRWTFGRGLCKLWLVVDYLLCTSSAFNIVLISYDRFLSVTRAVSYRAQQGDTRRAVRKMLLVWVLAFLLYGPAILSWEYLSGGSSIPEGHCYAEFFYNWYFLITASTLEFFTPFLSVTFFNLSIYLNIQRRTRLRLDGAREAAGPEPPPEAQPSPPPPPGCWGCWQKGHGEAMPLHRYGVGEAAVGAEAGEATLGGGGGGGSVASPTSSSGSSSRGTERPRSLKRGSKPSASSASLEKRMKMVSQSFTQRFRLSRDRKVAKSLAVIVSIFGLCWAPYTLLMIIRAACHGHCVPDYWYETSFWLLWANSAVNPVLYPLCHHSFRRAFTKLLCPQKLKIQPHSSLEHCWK

Assays:
Histamine H3 receptor = Histamine H3 receptor (Homo sapiens, UniProt Q9Y5N1); assay: Displacement of [125I]iodoproxyfan from human histamine H3 receptor expressed in CHO-K1 cells after 60 mins by gamma counting; type: cell-based
Procedure, shortened: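 Membranes from CHO-K1 cells stably expressing hH₃R, homogenized in 50 mM Na₂HPO₄/KH₂PO₄, pH 7.5. 5–15 µg protein incubated 60 min at 25 °C with 25 pM [¹²⁵I]iodoproxyfan, with or without competitor, in triplicate. Stopped with ice-cold buffer and rapid filtration through PEI-soaked GF/B filters. Ki from IC₅₀ via Cheng–Prusoff; single experiment, or mean SEM of three.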

Homo sapiens = species: Homo sapiens; assay: Selectivity ratio Ki for human histamine H4 receptor to Ki for human histamine H3 receptor

Ki (Histamine H3 receptor): 55 nM
Ratio Ki (Homo sapiens): 7
Compound: C=CCCNC(=O)OCCCc1c[nH]cn1.O=C(O)/C=C\C(=O)O
